The values that follow are results of earlier work, collected in patent US10898570B2, “Combination therapy with an anti-HER2 antibody-drug conjugate and a Bcl-2 inhibitor” (Genentech, Inc., priority 2015, dated 2021).

Where two headings read alike, the source gives them in different places.

The conditions of data set [1]: cited from earlier work.
Data set [2] concerns HER2-positive advanced breast cancer. The settings on record: 3.6 mg/kg q3w, compared to lapatinib plus capecitabine; cited from earlier work.

In the case of trastuzumab-MCC-DM1 [T-DM1], the tolerability result in data set [1] (3.6 mg/kg q3w) and in data set [1] (weekly dosing with 2.4 mg/kg) was “well tolerated” throughout. Besides, the “maximum tolerated dose (MTD)” value in data set [1] (IV infusion every 3 weeks (q3w)) is on record as 3.6 mg/kg. Besides, the “DLT (Dose-Limiting Toxicity)” value in data set [1] (patients treated at 4.8 mg/kg) is recorded as “transient thrombocytopenia”. Also, the toxicity result in data set [2] is listed as “less toxicity”.
